# Test results from patent US20220401391A1, “METHODS AND COMPOSITIONS FOR TREATING PAIN” (Apkarian Technologies LLC, priority 2019, published 2022).
# Assay: Adverse events and safety in the clinical trial
# [1] = participants who received at least one dose
substance,measurement,setting,value
placebo+naproxen [PLC+NPX],Participants reporting clinical adverse events (number),[1],17
same,Participants reporting clinical adverse events (percent),[1],56.7%
same,Safety / tolerability in words,three months of treatment,unperturbed vital signs and acceptable adverse-event profiles
